## scFv variants of Ab-91 (heavy chain) against a SARS-CoV-2 spike peptide

From the AlphaSeq antibody data of Engelhart et al. 2022 (doi:10.1038/s41597-022-01779-4), copy in the FLAb collection.

The target is the same throughout: PDVDLGDISGINAS, from the HR2 region of SARS-CoV-2 spike.

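The starting antibody came from a phage panning campaign against this peptide. The library (AAYL51) carries one to three amino acid substitutions per variant, with no insertions or deletions. Affinity was read by AlphaSeq, a pooled yeast mating assay with surface-displayed partners. After mating in shaken culture at 30 °C for 16 h, diploids were selected and their barcode pairs sequenced. Each replicate has its own calibration line, from reference interactions of the BCL2 family. There are three technical replicates.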

The variants keep the light chain, the linker and the frameworks of Ab-91 (scFv order VL, three GGGGS repeats, VH).
VL: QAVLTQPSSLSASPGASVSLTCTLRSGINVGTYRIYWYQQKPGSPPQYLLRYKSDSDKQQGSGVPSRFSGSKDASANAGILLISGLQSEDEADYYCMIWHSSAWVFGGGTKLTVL
VH: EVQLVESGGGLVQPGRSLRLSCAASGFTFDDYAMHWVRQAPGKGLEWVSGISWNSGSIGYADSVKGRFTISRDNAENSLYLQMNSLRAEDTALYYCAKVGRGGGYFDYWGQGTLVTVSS

Variants are written as CDR1, CDR2 and CDR3 of the heavy chain (limits as in the source). Parent: GFTFDDYAMH, GISWNSGSIGYADSVK, VGRGGGYFDY. Affinities are written as log10 Kd with Kd in nM; a lower number is a better binder. The mean shown is taken over the replicates in which the pair was detected. A pair that was not seen in any replicate is written "no signal"; this usually means weak binding, but a binder can also be missed.

log10 Kd (nM), mean | replicates with signal | CDR-H1 | CDR-H2 | CDR-H3
no signal | 0/3 | GFTFDDYAMV | GISWNSGSIGYADSVK | VGRGGGKFDA
4.19 | 1/3 | GYTFDDYAMH | GISWNSGSIGYATSVK | VGRGGGYFSY
no signal | 0/3 | AFTFDDYAMH | GISWNSGSIGYADSVK | VGFGWGYFDY
4.13 | 3/3 | GFTFDDYAMH | GISWNFGSIGYADSVK | VGRGRGYFDY
no signal | 0/3 | GFTFLDYAMH | GISWNSGSGLYADSVK | VGRGGGYFDY
4.82 | 1/3 | GFTFDDYAYH | GIDWNSGSIGYADSVK | VGRGGGGFDY
3.84 | 2/3 | GHTFDDYAMH | GISWNSGCIGYADSVK | VGRGGGYADY
1.20 | 3/3 | GFTFDDYAMH | GISWNSNSIGYADSGK | VGRGGGYFDA
4.77 | 3/3 | GFTFDDYAMH | GTSWNSGSIGYADSFK | VGRGGGIFDY
5.25 | 2/3 | GFTFDDYAMH | GESWNSGSVGYSDSVK | VGRGGGYFDY
2.43 | 3/3 | GFTFHDYAMH | GISWNSGSIGYADSEK | VGRGGGYFDH
no signal | 0/3 | GFTPDDYAMH | GISWNSWDIGYADSVK | VGRGGGYFDY
no signal | 0/3 | GFTFDDYAMD | GISWNSGVIGYADSVK | VGRGQGYFDY
no signal | 0/3 | GFTFDDYAMH | GESWNSGSIGSADSVK | VGRGGGYFDY
4.96 | 2/3 | GETFDDYAMH | GISWNSGSIGYADEVK | VGRGGGYFDY
no signal | 0/3 | GFTFDDYYMH | GISWNSGSIGYADSKK | VGRGGGYFDY
5.29 | 3/3 | GFTFDDYWMH | GISWNSGSIGYADSVK | VYRGGGYFMY
4.30 | 1/3 | HFTFDDYAMH | GISWNSGSIGDADSVK | VGRCGGYFDY
5.40 | 1/3 | GFTFDDNAMH | GISWNSGSIGYADSVK | VGRGPGYFRY
no signal | 0/3 | GFTFLKYDMH | GISWNSGSIGYADSVK | VGRGGGYFDY
4.38 | 1/3 | KFTFDDYAMH | GISWNSNSIGYADSVH | VGRGGGYFDY
no signal | 0/3 | GFTFDDYWMH | GISWNSGSCGYADSVK | VGPGGGYFDY
5.53 | 2/3 | GFTFDDYAMH | GISWNSGSIGWADSVK | IGRGGGVFDY
6.12 | 2/3 | GITFDDYAMH | GISWNSGSIGYAESVK | VWRGGGYFDY
4.49 | 3/3 | GFTFDDYAMW | GISWNSGSIGYADSVQ | VGRGGGNFDY
no signal | 0/3 | GFTFDDPAMH | GISWNSGVISYADSVK | VGRGGGYFDY
no signal | 0/3 | GFTFDDRAMH | GISWNSGSIGEADSVK | VGRGGGYFDY
5.41 | 3/3 | GFTFDDYAMH | GISWNSGSIGYADCVK | VGRGGVDFDY
4.78 | 1/3 | GFIFDDYAMH | GISWNSMSIGYADSVK | VGRGGGGFDY
no signal | 0/3 | GFTFDDYAMH | MISWNSGSIGYADSVK | VGRSGGTFDY
no signal | 0/3 | GFTFDDDAMH | GISWNSGSIGYADSVK | VGAGGGSFDY
4.46 | 2/3 | GFTFDQYAMH | GISWNSGSIGFADSVK | VARGGGYFDY
4.79 | 1/3 | GFTFDDYAMH | GISWVKGSIGYADSVK | VGRGGGYFVY
3.97 | 1/3 | PFTPDDYAMH | GISWNSGSIGYADSVK | VTRGGGYFDY
5.37 | 1/3 | KFTFDDYAMH | GISWNSGSIGYADCVK | QGRGGGYFDY
4.71 | 1/3 | GKTFDDYAMH | GISWNSGSIGYLDSVK | VGRGGGYFDY
5.59 | 1/3 | GFTLDDYAMH | GISWNSGSIHYADSVK | VGRGGGYFDE
no signal | 0/3 | GFTNDDYAMH | GISWNSGSIGYADSVK | VGRGSGYFDY
no signal | 0/3 | MFTFDDYAMH | GISWNSGSIGYAWSVK | VGRGGGYKDY
no signal | 0/3 | GFRFDDYAMH | FISWNSGSIGYACSVK | VGRGGGYFDY
no signal | 0/3 | PFTFDDYAMH | GISWRSGSIGYADSVK | VGWGGGYFDY
0.63 | 3/3 | GFTFMDYAMH | GISFNSGSIGYADPVK | VGRGGGYFDY
1.67 | 3/3 | GFPFDDYAMH | GISWNSGSIGYADSVC | VGRGGGYFDY
5.31 | 2/3 | GFTFDDYAML | GISWNSGSKGYADSVK | MGRGGGYFDY
no signal | 0/3 | GFYADDYAMH | GISWNSGSIGYADSVK | VGRGGGYFTY
no signal | 0/3 | GFTDDDYAMH | GISWNMGSIGYADSVY | VGRGGGYFDY
4.38 | 2/3 | GFTFDDYAMH | GISWNSGSIGYADSVK | DGRSEGYFDY
no signal | 0/3 | KFTFDDYAMH | GMSWNKGSIGYADSVK | VGRGGGYFDY
no signal | 0/3 | GFTFDDYVMH | GISWNSGSIGYAWSVK | VGRGFGYFDY
no signal | 0/3 | GFTFDDYAMH | GISWNSGVIGDADSVK | VGSGGGYFDY
no signal | 0/3 | GFTFDDYAMH | RISKNSGSIGWADSVK | VGRGGGYFDY
4.34 | 2/3 | GFTFDDVAIH | QISWNSGSIGYADSVK | VGRGGGYFDY
4.06 | 1/3 | GFTFDDYAMH | GISWNSGSIGYADSVW | VCRVGGYFDY
3.75 | 2/3 | GFTFDDYAMH | GISWNSGSIGYADSVK | DGRGDDYFDY
no signal | 0/3 | GFTVDDYAMH | GISWNSGSIGYEYSVK | VGRGGGYFDY
no signal | 0/3 | VFTFDDYAMH | KISWNSGHIGYADSVK | VGRGGGYFDY
2.86 | 3/3 | GFTFFDYAMH | GISWNSGSIGYADSVK | IGRGEGYFDY
no signal | 0/3 | GLTFDDYAMH | GIDWNSGSIGIADSVK | VGRGGGYFDY
5.72 | 1/3 | GLTFDDYAMH | GISWNSGSIGYADSVQ | VPRGGGYFDY
no signal | 0/3 | GFTFDDYFMF | GISWNSGSIGYADSVK | VGRGGGWFDY
no signal | 0/3 | GFTFDDEAAH | GISWNSGSIGYADSVT | VGRGGGYFDY
5.23 | 1/3 | GFTFDDNAMH | GISWISGSGGYADSVK | VGRGGGYFDY
no signal | 0/3 | PFTFDDYAMH | GISWNSGSIGYADSVK | VGRGGKYFDY
no signal | 0/3 | GFTFDDYAMH | HISWNSGSIGYADSVK | VSRGGGYFDY
no signal | 0/3 | GFTIDDYAMH | GISWNSASIGYADSVM | VGRGGGYFDY
5.25 | 3/3 | GFTFDDYAMH | GISWAGGSIGYADSVK | VMRGGGYFDY
no signal | 0/3 | GFTFDDYAGH | GISHNSGSIGYADSVK | VWRGGGYFDY
5.00 | 2/3 | GITFDDYAYH | GISWNSGSIGWADSVK | VGRGGGYFDY
5.87 | 1/3 | GFTFDDYAMA | GISWNSGSIGYADSVK | VTRRGGYFDY
no signal | 0/3 | GFTFDDYAMY | GISWNSGSIGYADSVA | VGRGGGYFDS
no signal | 0/3 | GFHFDDYAMH | GISWNSGSIGPADSVK | VGRGGGVFDY
no signal | 0/3 | GFTHDDYAMH | GISWNSGLIGYADSVK | IGRGGGYFDY
4.76 | 2/3 | GFTFDDYAMH | GISWNSGSIGYAVYCK | VGRGGGYFDY
no signal | 0/3 | GFTFDKYAMH | GISWNSGSRGYADSVK | VGRGGGYFDY
no signal | 0/3 | GFTFDDYAMH | GISTNSGPIGYADSVK | VGRGGGYWDY
no signal | 0/3 | GFTFDDYAMH | GISWNSGSPGYADSVK | VGRGGGYARY
4.06 | 1/3 | GFTFDDYAMH | GISWNSGSFGEADSVK | VGRGGSYFDY
3.34 | 1/3 | GFTFDDYAMH | GRGWNSGSISYADSVK | VGRGGGYFDY

The last 8 entries again:

{"CDR-H1": "GFHFDDYAMH", "CDR-H2": "GISWNSGSIGPADSVK", "CDR-H3": "VGRGGGVFDY", "log10 Kd (nM), mean": "no signal", "replicates with signal": "0/3"}
{"CDR-H1": "GFTHDDYAMH", "CDR-H2": "GISWNSGLIGYADSVK", "CDR-H3": "IGRGGGYFDY", "log10 Kd (nM), mean": "no signal", "replicates with signal": "0/3"}
{"CDR-H1": "GFTFDDYAMH", "CDR-H2": "GISWNSGSIGYAVYCK", "CDR-H3": "VGRGGGYFDY", "log10 Kd (nM), mean": "4.76", "replicates with signal": "2/3"}
{"CDR-H1": "GFTFDKYAMH", "CDR-H2": "GISWNSGSRGYADSVK", "CDR-H3": "VGRGGGYFDY", "log10 Kd (nM), mean": "no signal", "replicates with signal": "0/3"}
{"CDR-H1": "GFTFDDYAMH", "CDR-H2": "GISTNSGPIGYADSVK", "CDR-H3": "VGRGGGYWDY", "log10 Kd (nM), mean": "no signal", "replicates with signal": "0/3"}
{"CDR-H1": "GFTFDDYAMH", "CDR-H2": "GISWNSGSPGYADSVK", "CDR-H3": "VGRGGGYARY", "log10 Kd (nM), mean": "no signal", "replicates with signal": "0/3"}
{"CDR-H1": "GFTFDDYAMH", "CDR-H2": "GISWNSGSFGEADSVK", "CDR-H3": "VGRGGSYFDY", "log10 Kd (nM), mean": "4.06", "replicates with signal": "1/3"}
{"CDR-H1": "GFTFDDYAMH", "CDR-H2": "GRGWNSGSISYADSVK", "CDR-H3": "VGRGGGYFDY", "log10 Kd (nM), mean": "3.34", "replicates with signal": "1/3"}

In this assay the parent's reference entry averaged 1.86; its copy inside this library read 0.88. Background: pairings of library AAYL51 with three empty control strains gave a value in 21% of cases (median 4.54, 5th percentile 3.26). Values in that range, when seen in few replicates, are hard to tell from nonspecific mating.